Experimental data reported in ChEMBL document CHEMBL4699583 (J Med Chem, 2020).

Chains of the proteins cited; added tags and fusions are not shown. Lines headed by an entry give the natural chain unless they say otherwise; changes in a name come on top.
UniProt P11388: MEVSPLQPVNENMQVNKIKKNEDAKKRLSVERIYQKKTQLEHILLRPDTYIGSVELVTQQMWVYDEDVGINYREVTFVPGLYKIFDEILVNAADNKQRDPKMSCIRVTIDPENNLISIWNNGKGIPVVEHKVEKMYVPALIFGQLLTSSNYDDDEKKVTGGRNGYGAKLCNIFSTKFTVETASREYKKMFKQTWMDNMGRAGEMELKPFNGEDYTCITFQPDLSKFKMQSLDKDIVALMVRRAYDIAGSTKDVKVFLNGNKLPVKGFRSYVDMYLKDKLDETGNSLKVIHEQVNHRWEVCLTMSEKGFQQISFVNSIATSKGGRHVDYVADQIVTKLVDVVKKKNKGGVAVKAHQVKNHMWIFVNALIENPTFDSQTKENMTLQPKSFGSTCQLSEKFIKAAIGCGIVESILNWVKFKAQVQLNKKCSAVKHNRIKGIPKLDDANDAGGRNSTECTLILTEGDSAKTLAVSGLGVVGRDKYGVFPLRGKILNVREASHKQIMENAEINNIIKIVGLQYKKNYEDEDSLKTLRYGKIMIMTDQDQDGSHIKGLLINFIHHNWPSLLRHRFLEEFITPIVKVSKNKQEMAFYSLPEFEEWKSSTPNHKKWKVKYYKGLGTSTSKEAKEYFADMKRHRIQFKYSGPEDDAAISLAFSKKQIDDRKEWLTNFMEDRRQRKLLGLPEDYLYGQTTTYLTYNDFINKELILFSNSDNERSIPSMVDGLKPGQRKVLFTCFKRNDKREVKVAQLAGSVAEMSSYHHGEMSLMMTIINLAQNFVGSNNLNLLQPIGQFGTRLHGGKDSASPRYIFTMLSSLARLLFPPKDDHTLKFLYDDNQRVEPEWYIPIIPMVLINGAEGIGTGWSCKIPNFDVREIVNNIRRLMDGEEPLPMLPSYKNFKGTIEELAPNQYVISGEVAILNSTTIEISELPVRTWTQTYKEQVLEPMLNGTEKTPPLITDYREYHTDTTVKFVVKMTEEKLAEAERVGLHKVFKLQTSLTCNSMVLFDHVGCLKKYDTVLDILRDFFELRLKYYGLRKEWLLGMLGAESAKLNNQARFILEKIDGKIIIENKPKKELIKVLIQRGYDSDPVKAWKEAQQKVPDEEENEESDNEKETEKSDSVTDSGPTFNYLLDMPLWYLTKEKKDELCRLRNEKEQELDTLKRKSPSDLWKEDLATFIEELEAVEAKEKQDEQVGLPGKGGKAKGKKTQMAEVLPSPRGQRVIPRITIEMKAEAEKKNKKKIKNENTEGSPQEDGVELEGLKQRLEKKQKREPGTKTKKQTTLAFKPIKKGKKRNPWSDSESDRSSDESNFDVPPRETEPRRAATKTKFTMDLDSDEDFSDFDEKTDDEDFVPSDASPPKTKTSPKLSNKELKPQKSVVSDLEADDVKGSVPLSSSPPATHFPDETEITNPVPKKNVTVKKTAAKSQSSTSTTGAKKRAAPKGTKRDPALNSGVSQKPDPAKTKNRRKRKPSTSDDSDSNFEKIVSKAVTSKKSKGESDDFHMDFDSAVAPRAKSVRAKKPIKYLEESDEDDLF

Assays:
[1] = target: T1, DNA topoisomerase 2-alpha (Homo sapiens, UniProt P11388); test: Inhibition of human topoisomerase 2alpha ATPase activity assessed as ATP hydrolysis in presence of [gamma32P]ATP and absence of supercoiled pBR322 as substrate at 5 to 20 uM as substrate incubated for 8 mins by chromatography analysis; conditions: dose microM 5-25, time 8.0 min
[2] = target: T1, DNA topoisomerase 2-alpha; test: Inhibition of human topoisomerase 2alpha ATPase activity assessed as ATP hydrolysis in presence of [gamma32P]ATP and supercoiled pBR322 as substrate at 5 to 25 uM as substrate incubated for 8 mins by chromatography analysis; conditions: dose microM 5-25, time 8.0 min

With `CN(C)c1ccc(Nc2nc(-c3ccncc3)nc3c2CC(N)CC3)cc1` (configuration not stated) as the molecule, how does the inhibition [1] read?
Its inhibition is “inactive”.

What about the inhibition [2] of the same molecule?
Its inhibition is “Active”.

Calls of active or inactive are those of the source. The rule behind the calls is not given here.
